Test results: article PMC11742122, “Therapeutic Potential of Crocin and Nobiletin in a Mouse Model of Dry Eye Disease: Modulation of the Inflammatory Response and Protection of the Ocular Surface” (Iranian Journal of Pharmaceutical Research : IJPR, 2024)

Key:
[1] = system: corneal tissue; test: Hematoxylin and eosin staining of corneal tissue in LGE dry eye mouse model; details: LGE mice, 28 days post-operative, H&E; crocin 34 µM, nobiletin 32.75 µM, three times daily
[2] = system: corneal epithelial damage; test: Corneal fluorescein staining in lacrimal gland excision (LGE) dry eye mouse model; details: LGE mice; 3 µL three times daily for 28 days; crocin 34 µM, nobiletin 32.75 µM

Structure (SMILES) | infiltration of inflammatory cells [1] | corneal epithelial damage (fluorescein staining score) versus betamethasone group [2]
CC(/C=C/C=C(\C)C(=O)O[C@@H]1O[C@H](CO[C@@H]2O[C@H](CO)[C@@H](O)[C@H](O)[C@H]2O)[C@@H](O)[C@H](O)[C@H]1O)=C\C=C\C=C(C)\C=C\C=C(/C)C(=O)O[C@@H]1O[C@H](CO[C@@H]2O[C@H](CO)[C@@H](O)[C@H](O)[C@H]2O)[C@@H](O)[C@H](O)[C@H]1O [Crocin] | no infiltration of inflammatory cells was noted | no significant difference in the extent of corneal epithelial damage
COc1ccc(-c2cc(=O)c3c(OC)c(OC)c(OC)c(OC)c3o2)cc1OC [Nobiletin] | infiltration of inflammatory cells | no significant difference in the extent of corneal epithelial damage
